Measured affinities in a library of Ab-14 light chain variants

Binding partner: SARS-CoV-2 spike HR2 peptide, sequence PDVDLGDISGINAS.

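The starting antibody came from a phage panning campaign against this peptide. Designed CDR sequences, proposed from the first random library and measured here. Several design methods are mixed in this list. Affinity was read by AlphaSeq, a pooled yeast mating assay with surface-displayed partners. Binding brings cells together so that they mate, and sequencing counts the barcode pairs among the diploids. Scores were corrected for input abundance and mapped to Kd with protein pairs of known affinity run in the same pool. Each pool was mated in six replicate cultures.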

Each scFv is VH, a 15-residue (Gly4Ser)3 linker, VL, as in the parent Ab-14, and differs from it in the CDRs of the light chain only.
VH: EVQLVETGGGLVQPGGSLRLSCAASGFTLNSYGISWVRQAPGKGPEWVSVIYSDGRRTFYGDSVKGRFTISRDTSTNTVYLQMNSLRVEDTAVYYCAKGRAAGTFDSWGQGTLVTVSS
VL: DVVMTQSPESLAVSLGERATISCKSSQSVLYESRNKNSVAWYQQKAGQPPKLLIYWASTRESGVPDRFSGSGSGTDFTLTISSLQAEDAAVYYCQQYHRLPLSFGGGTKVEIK

Each variant is given by its three light chain CDRs, as the data file delimits them; those of the parent are KSSQSVLYESRNKNSVA, WASTRES, QQYHRLPLS.
Scale: log10 of Kd in nM, estimated from mating counts; low values are strong binders.
A mean of the replicates is given; it leaves out those without a signal.
An entry "nd" has no value in the source: the pair was not observed among the diploids in any replicate. This suggests poor binding but is not conclusive.
The authors averaged sequences with at least three values out of six and counted those with two or fewer as poor binders.

CDR-L1,CDR-L2,CDR-L3,"mean, log10 nM",seen in,signal with controls
KSQQSWLYESRNKNSVA,GASLRES,QQYHRLPLS,0.83,6 of 6,2 of 18
KIGMTLNQLMHKKNNVA,DLVMREN,QQYERLPLS,-0.07,6 of 6,1 of 18
KLEMSTLYESRNKNSVA,WASTRES,QQYHRLPLS,0.98,6 of 6,0 of 18
KSGQGVLYESRNKNSVA,GASTRES,QQYHRLPLM,0.02,6 of 6,1 of 18
KVSQSWPYESRNKNSVA,NASTRES,QQYHRLPLS,-0.10,6 of 6,4 of 18
KSSISYLYESGNKNSVA,NASTRMS,QQYHRLPLS,-0.03,6 of 6,1 of 18
KLSQSTLYDSLNKNSVA,WASTRES,QQYKRLPLS,2.27,5 of 6,0 of 18
KLRQSQLYESRNKNSVA,QASTRES,QQYHRLPLT,-0.25,6 of 6,1 of 18
KLQQSVLYESRMKNSVA,NASTRES,QQYHRLPLS,0.07,6 of 6,2 of 18
MLTRFNLENQGVSNNIA,DTNNVQE,QQYFRLPFA,0.51,6 of 6,0 of 18
KISQLVLYESQNKNSVA,AASTREE,QQYHRLPLS,-0.03,6 of 6,1 of 18
KLSMSWPMLSRNHNSVA,SASTRES,QQYHRLPLS,0.25,6 of 6,0 of 18
KSSQSVLAESFNKNSVA,GASTREA,NQYHRLPLS,nd,0 of 6,0 of 18
KLQQSEPYESRNKNSVA,NASTRMS,QQYHRLPLS,0.06,6 of 6,1 of 18
KMSQSQLYEWRNKNSVA,NASTRES,QQYHRLPLS,0.01,6 of 6,1 of 18
KSSQSVLYESRNKNSVA,MASTRES,QQKHRLPLS,nd,0 of 6,0 of 18
TIGEVMHYESRNKNSVA,QTSTREE,QDYHRLPLS,0.28,6 of 6,0 of 18
MLGDVAFGLSRKHNSVA,DNSTRES,QQYDRLPLS,1.96,5 of 6,0 of 18
KIGMTLNMMSHKKNNVA,DLVTREN,QQYHRLPLS,0.44,6 of 6,1 of 18
NLSQSVLYESRNKNSVA,GGNTRES,QQYHRLPLS,-0.25,6 of 6,2 of 18
KMRVSLSQGIYRQDSVA,STDIRVL,QQYHHLPLS,0.77,6 of 6,0 of 18
KLPQSWLYESRNKNSVA,SASQRES,QQYHRLPLS,-0.17,6 of 6,0 of 18
KLSQSVLMESRMVNNVA,DASQREE,QQYHRLPLS,0.03,6 of 6,1 of 18
VLAMESYGKSRHESNIA,GANMLAQ,QQYARLPFQ,0.03,6 of 6,2 of 18
HFSQVTMYGQWNKNSVA,QTSTREE,QQYDRLPLS,1.92,5 of 6,1 of 18
KLSMSVRMESFNKNSVA,ENSTREA,QDYHRLPLS,1.92,5 of 6,1 of 18
NITQQGDAMGDQRNNVA,NVETLQH,QQYAHLPLL,0.48,6 of 6,2 of 18
TVSQVHGMLSHNQNSVA,DMNTRGS,QQYDRLPLS,0.07,6 of 6,0 of 18
KFSYVYEMVNTDKESIA,DAHTVQM,QQYSRLPLA,1.63,6 of 6,0 of 18
HMSMLTLSGMRHTNSVA,QMTTRVN,QQYDRLPLT,0.31,6 of 6,0 of 18
KIGSQVTYESTNKNAIA,QMTTREE,QQYHRLPLS,0.10,6 of 6,3 of 18
KSSQSVLYESRNKNSVA,NASTREQ,QQYHRLPLS,1.23,5 of 6,1 of 18
SFPESLRQQQTNVNAVA,GAQHTAV,QQYGRLPLT,0.72,6 of 6,0 of 18
KLQQSVGYESRNKNSVA,HASTRES,QQYHRLPLS,-0.10,6 of 6,0 of 18
NLGGLDFNSTYGMKAVA,DVSEVGE,QHYSRLPLS,1.80,6 of 6,1 of 18
TLQQSWEYESRNKNSVA,NASQRED,QQYHRLPLS,0.11,6 of 6,0 of 18
KLPQSQLYESRNKNSVA,NASTRMS,QQYHRLPLS,-0.06,6 of 6,4 of 18
KSSNSTLYEDGMKNSVA,NASKRES,QQYHRLPLS,0.29,6 of 6,0 of 18
KSSQSTLYESLNKNSVA,GASIRLS,QQYHRLPLS,0.88,6 of 6,1 of 18
HITYGMQVAGRHSKSIA,QAETREK,QQYDRLPLS,0.53,6 of 6,2 of 18
KLQQSEEYESRNKNSVA,EASTRES,QQYHRLPLS,-0.26,6 of 6,0 of 18
KLSQSQLYESRNKNSVA,HASTRES,QDYHRLPLS,-0.06,6 of 6,2 of 18
KLQQWDLYEGRNKNSVA,SASTRSD,QQYHRLPLS,-0.24,6 of 6,0 of 18
KLTEAMASWTGDRHNIA,DITVTAP,QQYSRLPIT,0.15,6 of 6,0 of 18
IVSQLMLWGMHRKNSIA,EAQTRLN,QQYDRLPLM,0.76,5 of 6,0 of 18
KSSQSNLYESRNKNSVA,EASTREN,QQYHRLPLS,0.53,6 of 6,1 of 18
KSLQEVGYHSRNKNSVA,HASTRED,QQYHRLPLS,0.52,6 of 6,1 of 18
KIQQEGEYESRNKNSVA,SASTRCP,QQYHRLPLS,-0.21,6 of 6,0 of 18
KQSQSVPYESVNKNSVA,DASTRES,QQYHRLPLS,-0.15,6 of 6,0 of 18
KIGMVLNTLSHKQNNVA,DLVTREN,QQYFRLPLS,0.64,6 of 6,1 of 18
KLYQSVGYESRNKSRVA,DNSTRES,QQYDRLPLS,2.75,2 of 6,0 of 18
KSSQSVLYESRNKNSVA,WSSTLES,QQYHRLPLS,1.41,1 of 6,0 of 18
QTTAFYQHGDDQNQAMA,DVTMRDQ,QQYSRLPLS,0.68,6 of 6,0 of 18
FLHGQLEGGQKNWSAIA,ENSIRVN,QQYNHLPLL,1.81,6 of 6,2 of 18
KVQQSMGYESRNKNSVA,EASDRES,QDYHRLPLW,0.71,6 of 6,2 of 18

A sequence measured in both rounds can read differently, since the two assays cover different ranges.
The parent sequence was in this pool as ten entries: three were never detected, three once, and four in most replicates, with averages from 0.34 to 2.37.
As a blank, each scFv also met three strains without target: over all light chain designs, 4% of these pairings were detected, typically at 2.64 and seldom below 1.59. For each scFv, signals with the empty controls are counted beside the result.

The measurements come from Li et al. 2023 (doi:10.1038/s41467-023-39022-2) through the FLAb antibody collection.